Literature values, collected in patent US10183918B2, “Oxa-azaspiro compounds having activity against pain” (LABORATORIOS DEL DR. ESTEVE S.A., priority 2015, dated 2019).

Amino acid sequences for entries named in this document (tags omitted).
UniProt Q99720, whole entry: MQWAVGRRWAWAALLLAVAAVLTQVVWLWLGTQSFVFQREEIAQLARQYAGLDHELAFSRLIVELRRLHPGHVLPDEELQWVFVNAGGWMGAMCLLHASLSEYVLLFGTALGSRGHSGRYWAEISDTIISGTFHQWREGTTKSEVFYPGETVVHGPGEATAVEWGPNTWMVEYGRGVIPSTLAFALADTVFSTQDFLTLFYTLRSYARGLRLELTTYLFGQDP

Molecular target: sigma-1 (σ1) site (Homo sapiens, UniProt Q99720)
Conditions: result in words, background; cited from earlier work

Substance: (+)SKF-10047
- affinity for the sigma-1 (σ1) site: nanomolar affinity
